CC(C)O[N+](=O)[O-]
log10 OH rate constant (cm³/molecule/s): -12.3

Reference: the OPERA property sets (Mansouri et al. 2018)
